One molecule from ChEMBL document CHEMBL4020821, “Targeting Acidic Mammalian chitinase Is Effective in Animal Model of Asthma” (J Med Chem, 2018) can be followed below.

Protein sequences, listed by entry. Tags and fused reporters are not part of them. Lines headed by an entry give the natural chain unless they say otherwise; changes in a name come on top.
UniProt Q91XA9: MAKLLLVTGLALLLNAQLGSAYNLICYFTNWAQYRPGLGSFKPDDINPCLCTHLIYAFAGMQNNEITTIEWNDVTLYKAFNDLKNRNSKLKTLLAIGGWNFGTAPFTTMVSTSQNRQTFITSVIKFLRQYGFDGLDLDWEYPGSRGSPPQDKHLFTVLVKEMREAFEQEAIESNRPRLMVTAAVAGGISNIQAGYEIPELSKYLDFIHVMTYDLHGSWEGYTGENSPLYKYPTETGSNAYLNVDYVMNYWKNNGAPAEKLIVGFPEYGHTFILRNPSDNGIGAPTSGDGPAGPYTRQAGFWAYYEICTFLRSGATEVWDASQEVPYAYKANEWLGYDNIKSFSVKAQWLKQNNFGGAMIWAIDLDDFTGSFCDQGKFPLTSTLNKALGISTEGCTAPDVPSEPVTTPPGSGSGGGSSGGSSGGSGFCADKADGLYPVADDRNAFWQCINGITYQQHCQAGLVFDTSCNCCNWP

For the assay, the target named is Acidic mammalian chitinase (Mus musculus, UniProt Q91XA9). Nature of the assay: Inhibition of mouse recombinant full length C-terminal His-tagged acidic mammalian chitinase expressed in CHO-K1 cells using 4-methylumbelliferyl-beta-D-N,N'-diacetylchitobioside hydrate as substrate after 60 mins by fluorescence assay.

By IC50 is commonly meant the concentration needed to halve the response being measured. Take `CN(CCc1ccc(Cl)cc1Cl)C1CCN(c2nc(N)n[nH]2)CC1`: the IC50 was 333 nM.
